Source: publication PMC7723054
The other results are listed elsewhere or left out.

B1: hsa-mir-6783 (structured_RNA)
RNA: GGGAUAAGCGAUAUGUCCAGCUAAGCACGGUGUACGAAGUUUCAGCGAUCCGGGAACCCACAGCCCCGUUCGCUGAAGCUUCGUGCAC
B2: hsa-mir-1537 (structured_RNA)
RNA: GGGACGCAGUUCAGGUUACUACAAGGCCGGUGUACGAAGUUUCAGCUUUUCUGUCCUGUCCACACAGAAAAGCUGAAGCUUCGUGCAC
B3: hsa-mir-1265 (structured_RNA)
RNA: GGGACUGCACAGAUUACGAGUUCCUGCAGGUGUACGAAGUUUCAGCUGUUAAGGCAUGUUCAGGAACAGCUGAAGCUUCGUGCAC
B4: hsa-mir-7152 (structured_RNA)
RNA: GGGACGAGAGAUUCUGAUGCCUAAACUGGGUGUACGAAGUUUCAGCCAGACCAUGCCACAUCCGUCUGGCUGAAGCUUCGUGCAC
B5: NEAT1_ParasoR_ID12 (structured_RNA)
RNA: GGGACCCAUCAACGCGCUAACACCACAUGGUGUACGAAGUUUCAGCAGCAAAAUUUUAAUGACUAAAUACUGUCUUUGAUUUUUUGUUGCUGAAGCUUCGUGCAC
B6: hsa-mir-6743 (structured_RNA)
RNA: GGGAGAAACGGUUCCAAAGACACUCCGUGGUGUACGAAGUUUCAGCGGCCCCAGGAAGAAGGGCCUGGUGGAGCCGCUGAAGCUUCGUGCAC
B7: hsa-mir-548aa-2 (structured_RNA)
RNA: GGGAAAGGUCCCUCGCCUCCAUGUAAAGGGUGUACGAAGUUUCAGCUUUUGCCAUUACUUUCAAUGGCAAAAGCUGAAGCUUCGUGCAC
B8: hsa-mir-4276 (structured_RNA)
RNA: GGGAGUAUGAUUCAACCCAGCCUCGCGAGGUGUACGAAGUUUCAGCGUGCUGGCAGUGGCCACGUAAGCUGAAGCUUCGUGCAC
B9: hsa-mir-938 (structured_RNA)
RNA: GGGACAGGGCAUGCCUCUGAUAGCAAAUGGUGUACGAAGUUUCAGCCAGUGCACCUUCAUGAACCGGCUGAAGCUUCGUGCAC
B10: hsa-mir-4728 (structured_RNA)
RNA: GGGAUUACGCCAGGAGCUACCGAGAAAAGGUGUACGAAGUUUCAGCCAAGCACACAGGGCCUGGGACUAGCAUGGCUGAAGCUUCGUGCAC
B11: hsa-let-7a-1 (structured_RNA)
RNA: GGGAAGCACCCAGCAUGGAUGCAACUGAGGUGUACGAAGUUUCAGCAUAGUUUUAGGGUCACACCCACCACUGGGAGAUAACUAUGCUGAAGCUUCGUGCAC
B12: hsa-mir-6727 (structured_RNA)
RNA: GGGAAAGGUGCACAUUUUAACUCAGCGUGGUGUACGAAGUUUCAGCGGGAGCGGCCCUCACAUUGAUGGCUCCUGCUGAAGCUUCGUGCAC

What was measured:
Assay in all cases: FOREST: bead pull-down of RNA structure library v1, barcode microarray; U1A/LIN28A: 20 mM HEPES pH 7.5, 80 mM KCl, 20 mM NaCl, 10% glycerol, 2 mM DTT, 0.1 ug/uL BSA, 4 C; BG4/CIRBP/DHX36: 10 mM Tris-HCl pH 7.5, 100 mM KCl (or LiCl),; high values mean tight binding
U1A = U1A (Homo sapiens, UniProt P09012)
LIN28A = target: T1, LIN28A (human?, UniProt Q9H9Z2 1-209)
T1 sequence: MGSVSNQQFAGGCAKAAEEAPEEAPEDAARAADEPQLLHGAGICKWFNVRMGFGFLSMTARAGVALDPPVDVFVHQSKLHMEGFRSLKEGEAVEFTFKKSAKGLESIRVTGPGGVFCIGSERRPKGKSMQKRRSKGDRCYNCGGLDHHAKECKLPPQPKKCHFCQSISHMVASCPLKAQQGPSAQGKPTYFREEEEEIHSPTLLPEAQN

CIRBP = target: T2, CIRBP (Homo sapiens, UniProt Q14011 1-172)
T2 sequence: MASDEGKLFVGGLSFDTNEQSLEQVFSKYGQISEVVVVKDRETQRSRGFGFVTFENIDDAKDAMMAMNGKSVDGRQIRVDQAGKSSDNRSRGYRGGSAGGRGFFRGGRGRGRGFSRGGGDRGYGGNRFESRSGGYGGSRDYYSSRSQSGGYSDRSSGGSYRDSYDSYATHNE

DHX36 = target: T3, DHX36 (Homo sapiens, UniProt Q9H2U1 1-1008)
T3 sequence: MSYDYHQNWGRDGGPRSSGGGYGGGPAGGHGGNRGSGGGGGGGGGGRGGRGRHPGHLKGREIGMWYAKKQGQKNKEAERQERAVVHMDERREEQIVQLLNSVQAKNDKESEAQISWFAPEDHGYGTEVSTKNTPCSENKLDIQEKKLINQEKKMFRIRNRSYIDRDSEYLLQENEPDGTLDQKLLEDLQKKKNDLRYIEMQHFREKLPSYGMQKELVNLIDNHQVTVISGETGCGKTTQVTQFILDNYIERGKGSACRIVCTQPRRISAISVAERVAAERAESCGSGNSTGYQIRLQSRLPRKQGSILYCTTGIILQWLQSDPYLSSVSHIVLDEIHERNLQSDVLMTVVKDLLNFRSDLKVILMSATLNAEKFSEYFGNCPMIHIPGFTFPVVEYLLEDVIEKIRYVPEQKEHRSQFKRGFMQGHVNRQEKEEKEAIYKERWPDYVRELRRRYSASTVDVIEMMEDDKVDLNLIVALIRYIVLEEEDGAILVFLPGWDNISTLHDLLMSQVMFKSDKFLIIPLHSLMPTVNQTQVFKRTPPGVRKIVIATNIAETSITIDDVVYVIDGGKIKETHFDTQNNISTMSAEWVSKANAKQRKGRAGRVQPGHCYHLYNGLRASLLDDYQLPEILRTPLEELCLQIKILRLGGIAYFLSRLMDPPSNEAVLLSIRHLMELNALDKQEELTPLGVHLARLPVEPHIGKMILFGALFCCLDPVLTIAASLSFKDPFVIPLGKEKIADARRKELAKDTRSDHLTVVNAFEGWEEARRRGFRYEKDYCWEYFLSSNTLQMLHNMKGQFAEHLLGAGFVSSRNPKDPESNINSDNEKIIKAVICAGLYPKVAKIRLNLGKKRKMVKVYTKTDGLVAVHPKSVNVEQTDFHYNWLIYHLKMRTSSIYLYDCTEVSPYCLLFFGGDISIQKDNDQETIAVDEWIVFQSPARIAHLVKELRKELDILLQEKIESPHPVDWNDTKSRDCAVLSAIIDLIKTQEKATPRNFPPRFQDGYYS

Binder | binding signal (U1A) [z-score] | binding signal (LIN28A) [z-score] | binding signal (CIRBP) [z-score] | binding signal (DHX36) [z-score]
B1 | 0.00931 | 0.681 | 1.01 | 0.0688
B2 | 0.00911 | -0.15 | 0.387 | -0.685
B3 | 0.00849 | 0.446 | -1.13 | -0.176
B4 | 0.00734 | 1.64 | -0.296 | -1.06
B5 | 0.00725 | -0.919 | -1.08 | -0.222
B6 | 0.007 | -0.183 | -0.501 | -0.00886
B7 | 0.00552 | -1.36 | 0.747 | -0.586
B8 | 0.00483 | -0.318 | -0.354 | -0.508
B9 | 3.07 | -0.618 | -0.636 | -1.16
B10 | 1.67 | 1.61 | 2.9 | 1.73
B11 | 1.65 | 1.84 | -0.85 | 0.889
B12 | 1.64 | 0.74 | 0.334 | 0.681
